Chains of the proteins cited; added tags and fusions are not shown. Residues count along the entry.
UniProt P22303, 32-614 limits assumed: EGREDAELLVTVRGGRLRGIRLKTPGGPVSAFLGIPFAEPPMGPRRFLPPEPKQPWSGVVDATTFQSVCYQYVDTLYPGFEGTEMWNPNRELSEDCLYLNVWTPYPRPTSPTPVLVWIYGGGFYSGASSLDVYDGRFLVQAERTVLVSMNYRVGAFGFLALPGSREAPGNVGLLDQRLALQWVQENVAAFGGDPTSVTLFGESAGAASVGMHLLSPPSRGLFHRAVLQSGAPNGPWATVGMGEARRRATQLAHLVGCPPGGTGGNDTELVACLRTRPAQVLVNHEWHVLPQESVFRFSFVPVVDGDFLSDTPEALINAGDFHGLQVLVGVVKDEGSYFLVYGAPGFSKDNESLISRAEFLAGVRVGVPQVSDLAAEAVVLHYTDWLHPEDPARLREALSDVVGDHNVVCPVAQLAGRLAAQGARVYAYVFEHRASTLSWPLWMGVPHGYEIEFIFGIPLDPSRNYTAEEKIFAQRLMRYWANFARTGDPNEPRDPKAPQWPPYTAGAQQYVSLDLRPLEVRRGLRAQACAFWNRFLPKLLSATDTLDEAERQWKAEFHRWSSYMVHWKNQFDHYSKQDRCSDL

According to BindingDB's records for 30096649:

Target: Acetylcholinesterase (Homo sapiens, UniProt P22303)
Assay: ASSAY_NAME: ChEMBL_1801925 (CHEMBL4274217) DESCRIPTION: Inhibition of AChE in human erythrocytes using acetylthiocholine as substrate measured for 1 min

Row | SMILES | IC50 [µM]
1 | Nc1ccc(O)c(Cn2ccnc2)c1 | 482
2 | CCN(C)Cc1cc(N)ccc1O | 965
3 | CCCCN(C)Cc1cc(N)ccc1O | 125
4 | CNCc1cc(N)ccc1O | 334
5 | CCCN(CCC)Cc1cc(N)ccc1O | 131
6 | CCCN(C)Cc1cc(N)ccc1O | 1150
7 | Nc1ccc(O)c(CN2CCOCC2)c1 | 271
8 | CCCCCN(C)Cc1cc(N)ccc1O | 805
9 | CN(C)Cc1cc(N)ccc1O | 1540
10 | Nc1ccc(O)c(Cn2cccn2)c1 | 844
11 | CCCCCCN(C)Cc1cc(N)ccc1O | 1050
12 | Nc1ccc(O)c(CN2CCCCC2)c1 | 456
